Earlier results as cited in patent US20100076037A1, “Methods of Treating Neuropathic Pain with Agonists of PPAR-gamma” (priority 2006, published 2010).

Target: T1, PPARalpha (Homo sapiens, UniProt Q07869)
T1 sequence (Q07869 1-468): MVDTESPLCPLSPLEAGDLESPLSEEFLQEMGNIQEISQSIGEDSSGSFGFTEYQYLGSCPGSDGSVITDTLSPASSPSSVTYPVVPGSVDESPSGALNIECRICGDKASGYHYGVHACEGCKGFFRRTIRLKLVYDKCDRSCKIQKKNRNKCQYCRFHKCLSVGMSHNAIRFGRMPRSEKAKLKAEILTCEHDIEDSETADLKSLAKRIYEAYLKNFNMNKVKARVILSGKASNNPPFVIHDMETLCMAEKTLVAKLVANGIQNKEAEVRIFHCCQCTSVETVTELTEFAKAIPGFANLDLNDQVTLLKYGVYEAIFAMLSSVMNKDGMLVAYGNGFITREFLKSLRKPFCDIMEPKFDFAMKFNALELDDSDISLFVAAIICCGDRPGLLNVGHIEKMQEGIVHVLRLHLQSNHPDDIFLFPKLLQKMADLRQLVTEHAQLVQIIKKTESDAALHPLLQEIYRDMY
Conditions: first value of the pair given as α/γ; read-out: EC50 for PPARalpha agonism; cited from earlier work

In the case of `Cc1oc(-c2ccccc2)nc1CCOc1ccc(C[C@H](Nc2ccccc2C(=O)c2ccccc2)C(=O)O)cc1` [farglitazar], the EC50 is listed as 2 nM.
